Assays:
[1] = system: SH-SY5Y and dSH-SY5Y cells; details: 24 h exposure, [ATP], 0.78 to 100 µM
LUHMES and dLUHMES cells = details: 24 h exposure, 0.78 to 100 µM; for cytotoxic sensitivity ([ATP] IC50) of LUHMES and/or dLUHMES relative to the other cell lines: vs SH-SY5Y/dSH-SY5Y and NSC/dNSC; for relative cytotoxic sensitivity of LUHMES versus dLUHMES cells: [ATP]
NSC and dNSC cells = details: 24 h exposure, [ATP], 0.78 to 100 µM
[2] = system: Caspase 3/7 activity in NSC and dNSC cells; type: cell-based, human
SH-SY5Y = details: cited from earlier work

SMILES	cytotoxic sensitivity of dSH-SY5Y cells relative to SH-SY5Y cells [1]	cytotoxic sensitivity ([ATP] IC50) of LUHMES and/or dLUHMES relative to the other cell lines (LUHMES and dLUHMES cells)	relative cytotoxic sensitivity of LUHMES versus dLUHMES cells (LUHMES and dLUHMES cells)	relative cytotoxic sensitivity of NSC versus dNSC (NSC and dNSC cells)	increase of Caspase 3/7 activity in dNSC [2]	In vitro neural selectivity (effect reported in SH-SY5Y) (SH-SY5Y)
Oc1c(Cl)cc(Cl)c(Cl)c1Cc1c(O)c(Cl)cc(Cl)c1Cl [HCP, Hexachlorophene]	slightly more sensitive	more sensitive than the other cell lines	LUHMES cells were more sensitive than dLUHMES cells	NSC more sensitive than dNSC	but not dNSC	–
O=c1c(-c2ccc(O)cc2)coc2cc(O)cc(O)c12 [GEN, Genistein]	–	more sensitive than the other cell lines	LUHMES cells were more sensitive than dLUHMES cells	–	–	Apoptotic in SHSY5Y ([Karmakar et al., 2009])
